The values that follow come from patent publication US9676786B2, “Pharmacologically active compounds” (The University of Liverpool, priority 2013, dated 2017).

Test [1] deals with neuropathic rats. Nature of the test: Mechanical hyperalgesia, paw withdrawal thresholds in neuropathic rats (partial sciatic nerve ligation). Type of test: in vivo, rat. The conditions noted are these: neuropathic Wistar rats, p.o. An excerpt:
(§1) The wound was closed with skin clips.
(§2) Control animals received vehicle alone.

The subject of test [2] is neuropathic rats. As to the kind of experiment: Cold sensitivity (10° C. cold plate), paw withdrawal latencies in neuropathic rats. The test is classed as in vivo, rat. The conditions noted are these: 30 mg/kg p.o., neuropathic Wistar rats.
From the text: as §1, §2

In the case of `CC(C)c1cc(C(=O)N2CCOCC2)cc(C(C)C)c1O` [LT-01-25, (4-(hydroxy)-3,5-diisopropylphenyl)(morpholino)methanone], in test [1], the “Contralateral paw withdrawal thresholds to mechanical pressure” value is “significant increase”. Also, in test [2], the “Contralateral paw withdrawal latencies to cold” value is recorded as “increased”.
